Values after ≈ are worked out from the molar mass of the structure shown.
Assays:
[1] = Quenching studies of Py-SNPs in DMSO (time-resolved fluorescence, Stern-Volmer); settings: from slope of τ0/τ vs quencher concentration
[2] = in water; cited from earlier work
[3] = Quenching studies of Py-SNPs in water (steady-state fluorescence); settings: monomer between 356 and 400 nm, on addition of quencher

Row | SMILES | bimolecular quenching rate constant kq [1] | water solubility [2] [µg/mL] | change in fluorescence intensity of the pyrene monomer [3] [%]
1 | C[N+](=O)[O-] | 1.7 (±0.1) M^−1 ns^−1 |  | 
2 | Cc1ccc([N+](=O)[O-])cc1 | 4.0 (±0.3) M^−1 ns^−1 | 361 (≈ 2630 µM) | 10

From patent US20190339279A1, “DETECTING NITROAROMATIC COMPOUNDS WITH PYRENE-LABELED STARCH NANOPARTICLES” (published 2019)
